Data reported in patent US11208385B2, “N-substituted imidazole carboxylate compound, preparation method and use” (priority 2017, dated 2021).

How the values were obtained:
[1] = in vivo; cited from earlier work
[2] = In vitro degradation experiment in rat liver homogenate (HPLC); assay type: in vitro ADME; conditions: rat liver homogenate at 5, 10, and 20 min
Experimental: In Vitro Degradation Experiment of Compounds.
Chromatographic condition: mobile phase is methanol: H2O=65:35, and the water phase contains 0.06% ammonium acetate; the flow rate is 1 mL/min; the column temperature is 25° C.
Apparatus: Agilent 1100 Series. Chromatographic column: Aglent Eclipse Plus C18 column, 5 μm 4.6*[…].
The linear range is 1-50 μg/mL.
After fasting for 24 h, male SD rats were treated to collect liver, and the water on the surface of liver was removed using the filter paper, then liver was weighed. […] Then, the homogenate was centrifugated at 10000 g for 20 min at the temperature of 4° C. The supernatant solution was collected, and 14 samples (2 mL) of liver homogenate were taken out and warmed to 37° C. in water bath. Each compound (content 10 mg/mL, 10 μl) was added, respectively, to make a concentration of 50 μg/mL in liver homogenate.
[…] After centrifugation, the supernatant solution was taken out and injected. The concentration of each compound at each time point was detected, that was divided by the initial concentration of each compound, to obtain the degradation ratio of each compound.

## COC(=O)CCOC(=O)c1cncn1[C@H](C)c1ccccc1 [MOC-ET, reference compound]
[1]
  Potency relative to etomidate: ⅕
[2]
  Residual rate compared with etomidate: lower than that of control drug etomidate

## COC(=O)C1(OC(=O)c2cncn2[C@H](C)c2ccccc2)CC1 [CPMM, reference compound]
[2]
  Residual rate compared with etomidate: lower than that of control drug etomidate
